The results in this text go back to ChEMBL document CHEMBL1123393, “5-HT1 and 5-HT2 binding characteristics of 1-(2,5-dimethoxy-4-bromophenyl)-2-aminopropane analogues” (J Med Chem, 1986).

Amino acid sequences for entries named in this document (tags omitted). A change or cut given only in a name is not applied to a line headed by its entry.
UniProt P30994: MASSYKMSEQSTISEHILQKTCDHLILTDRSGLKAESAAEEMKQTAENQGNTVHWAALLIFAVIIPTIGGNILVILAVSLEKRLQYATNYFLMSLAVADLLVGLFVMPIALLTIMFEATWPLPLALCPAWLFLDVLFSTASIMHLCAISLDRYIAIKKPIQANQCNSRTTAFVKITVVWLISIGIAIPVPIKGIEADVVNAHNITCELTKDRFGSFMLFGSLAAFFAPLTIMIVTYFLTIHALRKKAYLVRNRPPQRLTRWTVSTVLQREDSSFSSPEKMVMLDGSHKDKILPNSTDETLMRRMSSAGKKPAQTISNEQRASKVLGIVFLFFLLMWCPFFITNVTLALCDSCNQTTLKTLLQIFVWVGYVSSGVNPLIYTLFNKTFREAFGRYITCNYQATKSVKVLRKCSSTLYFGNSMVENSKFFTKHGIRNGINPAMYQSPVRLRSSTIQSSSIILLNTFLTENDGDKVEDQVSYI
UniProt P08909: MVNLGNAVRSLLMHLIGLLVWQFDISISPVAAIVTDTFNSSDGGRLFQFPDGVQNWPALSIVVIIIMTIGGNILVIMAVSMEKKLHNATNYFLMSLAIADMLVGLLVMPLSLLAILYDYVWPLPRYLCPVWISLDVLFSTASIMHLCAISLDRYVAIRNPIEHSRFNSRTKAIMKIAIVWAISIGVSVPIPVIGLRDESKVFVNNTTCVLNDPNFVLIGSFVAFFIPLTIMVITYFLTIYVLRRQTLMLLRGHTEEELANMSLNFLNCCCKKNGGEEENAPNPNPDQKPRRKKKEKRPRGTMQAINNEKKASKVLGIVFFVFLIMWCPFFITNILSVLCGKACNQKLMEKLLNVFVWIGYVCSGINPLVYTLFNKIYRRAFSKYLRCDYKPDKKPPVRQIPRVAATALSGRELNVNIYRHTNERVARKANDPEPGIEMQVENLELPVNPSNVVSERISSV
UniProt P14842: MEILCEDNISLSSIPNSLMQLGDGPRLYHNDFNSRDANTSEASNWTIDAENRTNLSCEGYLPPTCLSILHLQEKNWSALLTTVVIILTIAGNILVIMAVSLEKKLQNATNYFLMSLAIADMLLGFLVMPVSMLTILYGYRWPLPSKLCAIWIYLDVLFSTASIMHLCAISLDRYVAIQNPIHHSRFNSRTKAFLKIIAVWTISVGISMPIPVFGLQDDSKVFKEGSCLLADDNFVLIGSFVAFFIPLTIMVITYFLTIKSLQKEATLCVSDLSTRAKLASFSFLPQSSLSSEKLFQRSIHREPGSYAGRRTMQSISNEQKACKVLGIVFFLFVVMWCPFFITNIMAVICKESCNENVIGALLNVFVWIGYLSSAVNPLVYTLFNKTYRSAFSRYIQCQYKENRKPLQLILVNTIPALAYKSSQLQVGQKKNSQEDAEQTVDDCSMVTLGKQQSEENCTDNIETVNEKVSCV

This assay has as its target Serotonin 2 (5-HT2) receptor (Rattus norvegicus, UniProt P30994+P08909+P14842). Briefly: Displacement of [3H]ketanserin from rat prefrontal cortex 5-hydroxytryptamine 2 receptor. Format: tissue-based.

Molecules are shown by their SMILES.

For `COc1ccccc1CC(C)N` (racemic), the Ki came to 8.13 µM. That is a single-digit micromolar value.

Consider `COc1cc(CC(C)N)c(OC)cc1Br` (racemic) [BROLAMFETAMINE], for which the Ki amounted to 0.063 µM.
